PMC9184582

Target: water-soluble chlorophyll protein (WSCP) from Lepidium virginicum, reconstituted with chlorophyll (Lepidium virginicum) (UniProt O04797)
Assay: SEC; size-exclusion chromatography of the reconstituted (chlorophyll-bound) WSCP; buffer and column not told

Substance: water-soluble chlorophyll protein (WSCP) from Lepidium virginicum, reconstituted with chlorophyll (from UniProt O04797 27-206) (natural protein)
- stoichiometry N: 4
